Measured values as given in PubChem BioAssay AID483 (Columbia University Molecular Screening Center, 2006).
The entries are a selection whose mix differs from that of the whole data set. The source made the active and inactive calls.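 Rule for the calls: active = visual image review flags a hit and inhibition of aggregation exceeds 20%; inconclusive = visual hit but inhibition at or below 20%; inactive = no hit on visual image review.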

experiment: inhibitors of mutant huntingtin aggregation, primary screen, imaging, exon1htt(103Q)mCFP cells, high-content imaging (AID 483); conditions: exon1htt(103Q)mCFP cell line, aggregate imaging; at 2 µM; stronger effect = higher value;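 note: compound exposure lasted 3 days before fixation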

SMILES	inhibition of aggregation
Fc1ccccc1NC1CCN(Cc2ccccc2)CC1	inactive: 11.3%
